From patent US6965013B2, “Intermedin and its uses” (The Board of Trustees of the Leland Stanford Junior …, priority 2002, dated 2005) come the findings set out here.

Amino acid sequences for entries named in this document (tags omitted). Residues count along the entry.
UniProt Q63118, 24-464: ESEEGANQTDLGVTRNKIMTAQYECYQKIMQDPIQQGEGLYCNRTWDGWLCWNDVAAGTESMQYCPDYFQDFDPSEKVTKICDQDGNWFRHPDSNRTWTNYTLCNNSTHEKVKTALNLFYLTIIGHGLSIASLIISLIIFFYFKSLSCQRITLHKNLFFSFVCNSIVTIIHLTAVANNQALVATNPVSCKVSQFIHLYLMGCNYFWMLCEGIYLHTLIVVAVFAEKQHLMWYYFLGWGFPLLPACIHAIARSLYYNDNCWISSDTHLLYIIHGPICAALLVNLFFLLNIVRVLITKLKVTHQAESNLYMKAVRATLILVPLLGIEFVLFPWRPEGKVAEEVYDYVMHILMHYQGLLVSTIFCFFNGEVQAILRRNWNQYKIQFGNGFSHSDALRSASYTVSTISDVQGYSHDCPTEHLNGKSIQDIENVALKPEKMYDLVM
UniProt Q9JJ74, 27-148 partner: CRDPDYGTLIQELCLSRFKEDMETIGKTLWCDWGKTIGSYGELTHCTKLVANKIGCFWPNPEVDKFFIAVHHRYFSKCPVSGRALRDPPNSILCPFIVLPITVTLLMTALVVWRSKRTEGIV

For this experiment, the target named is T1, L6 skeletal myoblast cells expressing endogenous CRLR (CGRP receptor) (Rattus norvegicus, UniProt Q63118+Q9JJ74).
T1 construct: expressing endogenous CRLR; host or cells: L6 rat skeletal myoblast cells
Kind of experiment: Stimulation of cAMP production in L6 cells. Conditions: 30 min treatment, 2.5 mM IBMX, FIG. 2B. The experiment is classed as cell-based. How it is done:
Stimulation of cAMP production in SK-N-MC and L6 cells by intermedin and related peptides. Human neuroblastoma SK-N-MC and rat L6 skeletal myoblast cells expressing endogenous CRLR were obtained from American Type Culture Collection. To estimate adenylyl cyclase activation, SK-N-MC and L6 cells (2×10^5 viable cells/well) were plated in 24-well culture dishes in DMEM/F12 medium one day before treatment. Following 2 h incubation in serum-free DMEM/F12 medium, cells were treated with testing reagents for 30 min in medium containing 0.1% BSA and 2.5 mM 3-isobutyl-1-methylxanthine (IBMX, Sigma-Aldrich Corp.) to prevent hydrolysis of cAMP by phosphodiesterases. Following treatment, cells were lysed and cAMP content determined by a specific radioimmunoassay.
(In general: cAMP levels reflect the balance of adenylyl cyclase and phosphodiesterase activity.)

With “calcitonin gene-related peptide [CGRP, reference compound]”, the cAMP production entry is given as “stimulated cAMP production”.
